Target: MAO-A (Homo sapiens, UniProt P21397)
Assay type: biochemical

Protein sequences, listed by entry. Tags and fused reporters are not part of them.
UniProt P21397, whole entry: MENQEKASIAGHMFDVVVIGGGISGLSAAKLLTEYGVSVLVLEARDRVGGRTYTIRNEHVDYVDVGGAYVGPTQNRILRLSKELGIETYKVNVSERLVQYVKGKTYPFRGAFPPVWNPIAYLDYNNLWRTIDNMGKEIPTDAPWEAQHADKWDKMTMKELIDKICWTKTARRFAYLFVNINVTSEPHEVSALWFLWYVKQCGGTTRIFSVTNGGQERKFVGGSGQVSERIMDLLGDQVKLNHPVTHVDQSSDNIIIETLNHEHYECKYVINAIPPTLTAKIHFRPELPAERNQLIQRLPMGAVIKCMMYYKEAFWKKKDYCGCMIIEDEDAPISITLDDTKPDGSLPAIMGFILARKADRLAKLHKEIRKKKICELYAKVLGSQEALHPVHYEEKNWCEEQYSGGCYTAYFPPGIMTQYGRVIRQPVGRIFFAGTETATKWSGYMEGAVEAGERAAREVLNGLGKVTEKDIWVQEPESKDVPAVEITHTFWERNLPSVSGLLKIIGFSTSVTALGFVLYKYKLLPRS

Compound `CC(C)NNC(=O)c1ccncc1` [iproniazide, reference compound] has an IC50 of 6.55 ± 0.75 µM.

Reference: publication PMC9370560, “5-Demethoxy-10′-ethoxyexotimarin F, a New Coumarin with MAO-B Inhibitory Potential from Murraya exotica L” (Molecules, 2022)
